In BindingDB's records for doi:10.1161/01.cir.102.23.2836 (Nih, 2000) one finds Ki data, which are given here for 2 molecules.

The chains behind the UniProt entries cited, without tags or fusion partners.
UniProt P41595, whole entry: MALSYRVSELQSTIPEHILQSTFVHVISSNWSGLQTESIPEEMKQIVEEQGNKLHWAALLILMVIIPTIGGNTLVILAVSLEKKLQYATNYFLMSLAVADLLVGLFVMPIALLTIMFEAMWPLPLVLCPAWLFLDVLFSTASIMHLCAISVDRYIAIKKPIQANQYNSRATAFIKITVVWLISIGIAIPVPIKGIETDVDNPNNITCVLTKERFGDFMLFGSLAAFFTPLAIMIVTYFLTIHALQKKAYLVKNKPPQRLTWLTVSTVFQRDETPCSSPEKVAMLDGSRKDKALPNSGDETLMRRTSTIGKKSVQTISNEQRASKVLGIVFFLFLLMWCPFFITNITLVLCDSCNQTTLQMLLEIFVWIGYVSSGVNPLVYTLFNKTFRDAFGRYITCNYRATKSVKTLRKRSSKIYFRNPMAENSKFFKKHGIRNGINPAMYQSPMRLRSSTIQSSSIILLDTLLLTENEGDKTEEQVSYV

For the assay, the target named is 5-hydroxytryptamine receptor 2B (Homo sapiens, UniProt P41595).

The structures appear in SMILES notation.

As usually defined, the Ki is the dissociation constant of the complex between target and ligand, obtained from inhibition or displacement. A higher Ki goes with weaker binding. In turn, `CCNC(C)Cc1cccc(C(F)(F)F)c1` (configuration not stated) [NSC_3337] gave a Ki of 4130 nM.

`Clc1cccc(N2CCNCC2)c1` [mCPP] came in with a Ki of 3.2 nM.
